Results published in publication PMC5711933, “Intracellular biomass flocculation as a key mechanism of rapid bacterial killing by cationic, amphipathic antimicrobial peptides and peptoids” (Scientific Reports, 2017).

How the values were obtained:
[1] = RP-HPLC elution (% ACN) as measure of hydrophobicity; type: physicochemical; conditions: chromatographic hydrophobicity; gradient of 5–95% acetonitrile (ACN) over 45 minutes, C18 column, 0.2 mL/min; average of three replicates
E. coli ATCC 35218 [2] = assay: Bacterial count by plating after 1-hour treatment, before SEM sample preparation; type: cell-based; conditions: 1 hour in PBS, control 5 × 10^5 CFU/mL
Method: E. coli was treated with 10 μM peptide or peptoid for 1 hour in phosphate-buffered saline (PBS). […] We used 10 μM peptide/peptoid for all samples since it is near the MICs of the majority of the oligomers.
Before fixation, aliquots of each samples were serially diluted and plated on agar to determine the concentration of live bacteria remaining after the 1-hour treatment. […] (1) SEM samples were treated in PBS (as discussed above), whereas MIC assays are performed in cation-adjusted Mueller-Hinton broth. AMPs and ampetoids are known to interact with ions in the media (for example, when switching from plain Mueller-Hinton broth to cation-adjusted Mueller-Hinton broth)[1], so differences in activity may be due to changes in media composition. (2) the treatments were for one hour only, whereas MICs are determined after 16 hours of growth. […] (3) Some of these compounds may cause inhibition of growth without causing bacterial cell death (i.e., they are bacteriostatic—which is what the MIC indicates—rather than bactericidal—which is determined by plating and counting colonies). […]
Overnight cultures of E. coli ATCC 35218 were centrifuged for 10 min and 2500 × g at room temperature, then resuspended in PBS. […] Bacterial concentrations of the diluted suspensions were calculated from their OD590 values using optical density curves derived from pre-determined concentrations. […]

E. coli ATCC 35218 [3] = assay: Bacterial count by plating after treatment, before TEM sample preparation; type: cell-based; conditions: 1 hour in PBS pH 7.4, control 1 × 10^8 CFU/mL
EGFP-Luc plasmid = assay: DNA retardation assay (gel electrophoresis); type: binding; conditions: EGFP-Luc plasmid in TBS, complexes 20 min at room temperature, 1–2% agarose gel
E. coli ATCC 35218 [4] = assay: Membrane depolarization monitored by diSC3-5 fluorescence; type: cell-based; conditions: 5-min treatment, 0.2 mM EDTA
E. coli ATCC 35218 [5] = assay: Transmission electron microscopy, lysis of bacteria; type: cell-based; conditions: concentrations as high as 2 mM (Supp. Fig. S3)
From the text: The same cellular components were all visible in E. coli treated with peptoid 2 (Supp. Fig. S2A) in that no depletion of ribosomes, appearance of large, amorphous, electron-dense regions in the cytoplasm, abolition of DNA aggregation, or smoothing of the outer membrane was observed. […] All other compounds effected large changes in intracellular morphology (Fig. 4B–I), and many did so while leaving both inner and outer membranes apparently intact (Fig. 4C,G,H and Supp. Fig. S2B). These oligomers’ ability to cause cytoplasmic disruption without visibly degrading either membrane explains why no overall correlation was observed between permeabilization or dye leakage and antibacterial activity (Fig. 2, Table 1).
E. coli ATCC 35218, grown overnight at 35 °C in Mueller-Hinton broth (MHB), were resuspended in 1X (150 mM) PBS, pH 7.4, and diluted to a concentration of 1 × 10^8 CFU/mL. Aqueous peptide/peptoid stock solutions were added to 1 mL aliquots of the suspension to the desired final concentration. After 1 hour, small volumes of each sample were serially diluted, plated, and incubated overnight at 35 °C, to be counted the following day. The remaining volume of each sample was centrifuged, and the pellet resuspended and enrobed in 5–10 µL of 2% low-melting agarose (gelling temperature 25° ± 5 °C) then drawn up into the tip of a Pasteur pipette. […]

In the case of C[C@H](NCC(=O)N(CC(=O)N(CCCCN)CC(=O)N(CC(=O)N(CC(=O)N(CCCCN)CC(=O)N(CC(=O)N(CC(=O)N(CCCCN)CC(=O)N(CC(=O)N(CC(=O)N(CCCCN)CC(=O)N(CC(=O)N(CC(=O)N(CCCCN)CC(=O)N(CC(=O)N(CC(N)=O)[C@@H](C)c1ccccc1)[C@@H](C)c1ccccc1)[C@@H](C)c1ccccc1)[C@@H](C)c1ccccc1)[C@@H](C)c1ccccc1)[C@@H](C)c1ccccc1)[C@@H](C)c1ccccc1)[C@@H](C)c1ccccc1)[C@@H](C)c1ccccc1)[C@@H](C)c1ccccc1)[C@@H](C)c1ccccc1)c1ccccc1 [1 17mer], the “% ACN at RP-HPLC elution” value [1] is reported as 70.1%, the “SEM: Bacterial count after 10 µM treatment (% of control)” value (E. coli ATCC 35218 [2]) is reported as 0.006 % of control and the “TEM: Bacterial count after 10 µM treatment (% of control)” value (E. coli ATCC 35218 [3]; 10 µM) is reported as 0.3 % of control. The “TEM: Bacterial count after 100 µM treatment (% of control)” value (E. coli ATCC 35218 [3]; 100 µM) was 0 (0) % of control, the “Retardation assay: mass of compound required to completely retard migration of 1 µg of DNA” value (EGFP-Luc plasmid) was 9.0 µg and the “Concentration causing maximal depolarization” value (E. coli ATCC 35218 [4]) was 3 µM. For the same compound, the “Lysis of the bacteria” value (E. coli ATCC 35218 [5]) was “not lytic”.
